Laboratory results reported in patent US20250082634A1, “PIM KINASE INHIBITORS FOR TREATMENT OF MYELOPROLIFERATIVE NEOPLASMS AND FIBROSIS ASSOCIATED WITH CANCER” (Sumitomo Pharma America, Inc., priority 2018, published 2025).

Protein sequences, listed by entry. Tags and fused reporters are not part of them.
UniProt Q9P1W9, whole entry, species assumed: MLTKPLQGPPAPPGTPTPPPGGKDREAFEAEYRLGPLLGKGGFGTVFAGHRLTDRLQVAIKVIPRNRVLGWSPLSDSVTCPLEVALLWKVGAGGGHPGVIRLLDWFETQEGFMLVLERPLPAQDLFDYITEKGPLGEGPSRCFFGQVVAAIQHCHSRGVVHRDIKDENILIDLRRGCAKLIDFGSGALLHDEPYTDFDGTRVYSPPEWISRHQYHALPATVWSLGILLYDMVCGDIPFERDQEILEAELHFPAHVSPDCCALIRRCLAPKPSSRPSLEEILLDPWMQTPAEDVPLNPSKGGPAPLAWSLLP

Target: PIM 2 (Homo sapiens, UniProt Q9P1W9)
Experiment: PIM kinase biochemical profile (Ki)

`CN1CCC(CNc2ccc3ncc(-c4cccc(OC(F)(F)F)c4)n3n2)CC1` [Compound A, reference compound] was tested. Which Ki did it give?
The Ki was 980 nM.
